Laboratory results: article PMC9603901, “Therapeutic Potential of Antimicrobial Peptide PN5 against Multidrug-Resistant E. coli and Anti-Inflammatory Activity in a Septic Mouse Model” (Microbiology Spectrum, 2022)
In brackets after ≈: the same amount, converted by molar mass.

Experiments:
[1] = test system: E. coli ATCC 25922; assay type: cell-based, Escherichia coli; settings: microdilution, LB, 2 × 10^5 CFU mL^−1, 18 to 24 h, 37°C, three independent experiments
Description: (§1) Bacterial cells were cultured at 37°C in the appropriate culture media with shaking (180 rpm). Luria-Bertani broth (LB) (244620; BD Difco) was used for E. coli ATCC 25922, ASEC strains, and B. subtilis KCTC 2217. Nutrient broth (NB) (234000; BD Difco) was used for P. aeruginosa ATCC 27853, S. Typhimurium KCTC 1926, and A. baumannii KCTC 2508. Tryptic soy broth (TSB) (211825; BD Difco) was used for S. aureus ATCC 25923. Finally, brain heart infusion (BHI) (237500; BD Difco) was used for L. monocytogenes KCTC 3710. The antimicrobial activity of each peptide was determined using microdilution assays. To this end, 2-fold serial dilution series of each peptide (from 1 to 64 μM) were added to duplicate media with 10 mM sodium phosphate buffer (pH 7.4). Fifty microliters of the peptide and antibiotic solution was added to each well of a 96-well plate (32096, surface nontreatment; SPL Life Sciences). Then, 50 μL of 2 × 10^5 CFU mL^−1 of bacteria was added to each well, and the samples were incubated for 18 to 24 h without shaking at 37°C.

[2] = test system: P. aeruginosa ATCC 27853; assay type: cell-based, Pseudomonas aeruginosa; settings: microdilution, NB, 18 to 24 h, 37°C, three independent experiments
Description: as §1

[3] = test system: S. aureus ATCC 25923; assay type: cell-based, Staphylococcus aureus; settings: microdilution, TSB, 18 to 24 h, 37°C, three independent experiments
Description: as §1

**Q.** What does the source list for `CC[C@H](C)[C@H](NC(=O)CN)C(=O)NCC(=O)N[C@@H](C)C(=O)N[C@H](C(=O)N[C@@H](CC(C)C)C(=O)N[C@@H](CCCCN)C(=O)N[C@H](C(=O)N[C@@H](CC(C)C)C(=O)N[C@H](C(=O)N[C@H](C(=O)NCC(=O)N[C@@H](CC(C)C)C(=O)N1CCC[C@H]1C(=O)N[C@@H](C)C(=O)N[C@@H](CC(C)C)C(=O)N[C@H](C(=O)N[C@@H](CO)C(=O)N[C@@H](Cc1c[nH]c2ccccc12)C(=O)N[C@H](C(=O)N[C@@H](CCCCN)C(=O)N[C@@H](CCCNC(=N)N)C(=O)N[C@@H](CCCCN)C(=O)N[C@@H](CCCNC(=N)N)C(=O)N[C@@H](CCC(N)=O)C(=O)N[C@@H](CCC(N)=O)C(N)=O)[C@@H](C)CC)[C@@H](C)CC)[C@@H](C)O)[C@@H](C)O)C(C)C)C(C)C` [Melittin]?
**A.** MIC [1]: 2 (5.69) μM; MIC [2]: 4 µM (≈ 11.4 µg/mL); MIC [3]: 2 µM (≈ 5.69 µg/mL)
